Drawing on US7045617B2, “Bisbubstrate inhibitors of kinases” (priority 2000, dated 2006), this text covers IC50 for one molecule.

Chains of the proteins cited; added tags and fusions are not shown. Residues count along the entry.
UniProt P06213, 1005-1310 limits assumed: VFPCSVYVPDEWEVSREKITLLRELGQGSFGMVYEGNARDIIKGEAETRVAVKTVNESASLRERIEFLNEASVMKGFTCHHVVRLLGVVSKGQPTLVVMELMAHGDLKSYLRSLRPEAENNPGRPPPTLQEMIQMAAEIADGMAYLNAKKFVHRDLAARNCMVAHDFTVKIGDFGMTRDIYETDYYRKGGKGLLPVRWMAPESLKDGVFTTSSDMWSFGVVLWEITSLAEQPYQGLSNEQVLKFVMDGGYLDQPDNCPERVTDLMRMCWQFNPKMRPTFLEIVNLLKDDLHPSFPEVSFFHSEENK

In this experiment the target is activated recombinant IRK (insulin receptor kinase) (Homo sapiens, UniProt P06213). Kind of experiment: Steady-state kinetic analysis of IRK inhibition (kinase assay). In kind it is biochemical. As for the experimental part:
FIG. 2. […] Assays were carried out using activated recombinant IRK as described previously. 6 a, E/V vs. 1/ATP in the presence of varying. Conditions: fixed IRS727 concentration ([…]), 20 mM MgCl2, 0.5 mM DTT, 6 nM IRK, 0.05% bovine serum albumin, Tris-Acetate pH 7, 10 min reaction time. b, E/V vs. 1/IRS727 in the presence of varying. Conditions same as for a except fixed ATP ([…]), 8 nM IRK and 5 min reaction time.
v=Vm(S)/[Km(1+I/Ki)+S]; v=initial velocity, Vm=maximal velocity, S=substrate concentration, Km=Michaelis constant. […] Conditions: Incubation of […] +/−5 mM 2 for 10 min in reaction buffer (20 mM MgCl2, 0.5 mM DTT, 0.05% BSA, 50 mM Tris-Acetate, pH 7) then dilute 1:50 into reaction buffer containing 1 mM ATP and […] peptide6 IRS939 and measure conversion by HPLC at times shown. To determine koff, data were fit to the equation^17: […]
Assays were carried out using activated recombinant IRK as described previously^6. For E/V vs. 1/ATP plot the conditions were: […] IRS727 concentration, 20 mM MgCl2, 0.5 mM DTT, 6 nM IRK, 0.05% bovine serum albumin, 50 mM Tris-Acetate pH 7, 10 min reaction time. For E/V vs. 1/IRS727 in the conditions were the same except fixed ATP ([…]) was employed, 8 nM IRK and 5 min reaction time.
v=Vm(S)/[Km(1+I/Ki)+S]; v=initial velocity, Vm=maximal velocity, S=substrate concentration, Km=Michaelis constant.

As usually defined, the IC50 is the concentration at which inhibition is half-maximal.

As for `CSCC[C@H](NC(=O)[C@H](Cc1ccc(NC(=O)CSP(=O)(O)OP(=O)(O)OP(=O)(O)OC[C@H]2O[C@@H](n3cnc4c(N)ncnc43)[C@H](O)[C@@H]2O)cc1)NC(=O)[C@H](CC(=O)O)NC(=O)CNC(=O)[C@@H](NC(=O)[C@H](C)NC(=O)[C@@H]1CCCN1C(=O)[C@H](CC(C)C)NC(=O)[C@H](CCCCN)NC(=O)[C@H](CCCCN)NC(=O)[C@H](CCCCN)NC(C)=O)[C@@H](C)O)C(=O)N[C@@H](CC(N)=O)C(=O)N[C@@H](CCSC)C(=O)N[C@@H](CO)C(=O)N1CCC[C@H]1C(=O)N[C@H](C(=O)NCC(=O)N[C@@H](CC(=O)O)C(=O)O)C(C)C` [Compound 2], the IC50 was around 10 µM.
